In test [1] the test system is endothelial cells (HUVEC). Put plainly: Growth inhibition of endothelial cells. The format is cell-based. The conditions noted are these: FIG. 1, 1D, 1E. As for the experimental part:
FIG. 1D: Activity of n-terminus decapeptide (DVCQDCIQMV; SEQ ID NO 21).
FIG. 1E: Activity of N-terminus pentapeptide (DVCQC; SEQ ID NO: 28).
By SDS-PAGE, the bacterial product was smaller than the eukaryotic protein. Because prokaryotically expressed proteins are not glycosylated, the difference in molecular weights probably represents the presence of carbohydrate in the eukaryotic protein. Recombinant proteins were then tested in KS, endothelial and control cell lines. Activity was found only in KS cell lines and endothelial cells.

For a further test, the system named is KS Y-1 tumors. Nature of the test: Pentapeptide on growth of KS Y-1 tumors in mice. The class given is in vivo. The following applies: 50 mg/kg subcutaneously daily from the day after implantation. As for the experimental part: FIG. 6: Effect of pentapeptide DVCQD (SEQ ID NO:28) on the growth of estiblished KS Y-1 tumors in mice. Mice were implanted with the tumor on day one. Treatment with the peptide was started on the following day at a dose of 50 mg/kg subcutaneously daily.

The subject of a further test is T1 cells. Put plainly: Fibroblast proliferation assay (MTT). The format is cell-based. The following applies: concentration not given, 5 days. The protocol:
To determine if Saposin B polypeptides had anti-angiogenic activity, a series of overlapping polypeptides were synthesized and tested in the KS Y-1 cell proliferation assay. The overlapping polypeptides are SEQ ID NOS:13 though 42. Cell Proliferation assays in either KS cells or fibroblast. Cells were plated in 48 well plates at equal numbers in appropriate culture medium. Cells were treated with the test compounds at various concentrations on day one, and on day 3. […] KS cells were used to represent the activated endothelial cells, while fibroblast cells represent the control cells. The results are remarkable for the lack of toxicity to the fibroblast relative to the activated endothelial cells/KS cells.

Another test has as its system KS Y-1 cells. Put plainly: KS Y-1 cell proliferation assay (MTT). The format is cell-based. The following applies: for Cell Proliferation Activity (% of control), KSY-1: concentration not printed, 5 days, MTT. The protocol:
To determine if Saposin B polypeptides had anti-angiogenic activity, a series of overlapping polypeptides were synthesized and tested in the KS Y-1 cell proliferation assay. The overlapping polypeptides are SEQ ID NOS:13 though 42. Cell Proliferation assays in either KS cells or fibroblast. Cells were plated in 48 well plates at equal numbers in appropriate culture medium. Cells were treated with the test compounds at various concentrations on day one, and on day 3. MTT was done on day 5. KS cells were used to represent the activated endothelial cells, while fibroblast cells represent the control cells. The results are remarkable for the lack of toxicity to the fibroblast relative to the activated endothelial cells/KS cells.

The source of these data is US6500431B1, “Inhibitors of angiogenesis and tumor growth” (University of Southern California, priority 1998, dated 2002).

Each structure is given as a SMILES string. Entries after “also recorded” stand apart in the source; their conditions may differ.

For the compound `CC(C)[C@H](NC(=O)[C@@H](N)CC(=O)O)C(=O)N[C@@H](CS)C(=O)N[C@@H](CCC(N)=O)C(=O)N[C@@H](CC(=O)O)C(=O)O` [SEQ ID NO:28, DVCQD], the “growth inhibition of endothelial cells” value in test [1] is on record as “Only endothelial cells show dose dependent growth inhibition”. Besides, the “tumor volume / activity in vivo” value with KS Y-1 tumors is recorded as “active in vivo; also recorded: significantly smaller”. Further, the results for the “Cell Proliferation Activity (% of control), T1” value in the test on T1 cells and in the test on T1 cells (first of two T1 value columns) were 87 % of control and 91 % of control, respectively. In addition, it took 11.8 µM to reach half-maximal inhibition in the test on KS Y-1 cells (IC50). The “Cell Proliferation Activity (% of control), KSY-1” value with KS Y-1 cells (first of two KSY-1 value columns) is given as 30 % of control; in the test with KS Y-1 cells (second of two KSY-1 value columns), 10 % of control.

With `CC(C)[C@H](NC(=O)[C@@H](N)CC(=O)O)C(=O)N[C@@H](CS)C(=O)N[C@@H](CC(=O)O)C(=O)N[C@@H](CC(=O)O)C(=O)O` [SEQ ID NO:40, DVCDD], in the test on KS Y-1 cells, the half-inhibitory concentration (IC50) stood at 12.2 µM.
